target: T1, full-length B-Catenin (Uniprot ID P35222) (Homo sapiens, UniProt P35222); test: biochemical; type: binding; settings: beta-Catenin FP IC50 (nM), competition fluorescence polarization
T1 construct: 10 nM full-length B-Catenin (Uniprot ID P35222)

The chains behind the UniProt entries cited, without tags or fusion partners.
UniProt P35222, whole entry: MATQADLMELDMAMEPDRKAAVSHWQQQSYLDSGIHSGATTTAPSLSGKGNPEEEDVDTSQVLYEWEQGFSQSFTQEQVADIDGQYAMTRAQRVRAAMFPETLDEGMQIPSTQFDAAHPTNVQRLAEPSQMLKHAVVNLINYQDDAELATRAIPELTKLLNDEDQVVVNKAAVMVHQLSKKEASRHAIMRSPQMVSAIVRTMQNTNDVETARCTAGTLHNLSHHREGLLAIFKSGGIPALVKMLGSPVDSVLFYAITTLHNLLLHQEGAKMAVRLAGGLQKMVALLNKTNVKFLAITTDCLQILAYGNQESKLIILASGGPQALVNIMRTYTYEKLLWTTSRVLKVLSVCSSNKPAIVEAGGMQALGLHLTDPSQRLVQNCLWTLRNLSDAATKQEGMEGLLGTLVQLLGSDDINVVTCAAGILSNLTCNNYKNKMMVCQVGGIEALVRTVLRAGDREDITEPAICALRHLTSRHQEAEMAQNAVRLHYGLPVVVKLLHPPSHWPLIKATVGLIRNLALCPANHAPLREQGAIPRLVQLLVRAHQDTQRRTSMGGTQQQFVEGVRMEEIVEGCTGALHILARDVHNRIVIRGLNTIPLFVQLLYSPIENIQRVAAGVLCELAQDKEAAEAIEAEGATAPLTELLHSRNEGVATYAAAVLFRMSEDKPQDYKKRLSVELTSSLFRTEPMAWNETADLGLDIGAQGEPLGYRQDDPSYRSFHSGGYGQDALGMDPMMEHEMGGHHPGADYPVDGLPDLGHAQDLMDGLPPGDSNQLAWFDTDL

Row | SMILES | IC50 [nM]
1 | CCCCC[C@@H]1NC(=O)[C@]23CCN(C2)C(=O)OCCCC=CCCCC2(CCCC=CC[C@]4(CCCN4C(C)=O)C(=O)N[C@@H](CC(=O)O)C(=O)N[C@@H](CC(C)(C)C)C(=O)N2)C(=O)N[C@@H](CC(=O)O)C(=O)N[C@@H](Cc2cccc(C(=O)O)c2)C(=O)NC(C)(C)C(=O)N[C@@H](C)C(=O)N[C@@H](Cc2ccccc2)C(=O)N[C@@H](CCCCNC(=O)CC[C@@H](C(=O)N[C@@H](C)C(N)=O)NC(=O)[C@H](Cc2csc4ccccc24)NC1=O)C(=O)N3 (relative stereo) [I-539, Ac-PL3-Asp-Npg-B5-Asp-3COOHF-Aib-Ala-Phe-Lys*3-PyrS2-hnLeu-BztA-GlnR*3-Ala-NH2] | < 50
2 | CCCCCCCC[C@@H]1NC(=O)[C@]23CCN(C2)C(=O)OCCCC=CCCCC2(CCCC=CC[C@]4(CCCN4C(C)=O)C(=O)N[C@@H](CC(=O)O)C(=O)N[C@@H](CC(C)(C)C)C(=O)N2)C(=O)N[C@@H](CC(=O)O)C(=O)N[C@@H](Cc2cccc(C(=O)O)c2)C(=O)NC(C)(C)C(=O)N[C@@H](C)C(=O)N[C@@H](Cc2ccccc2)C(=O)N[C@@H](CCCCNC(=O)CC[C@@H](C(=O)N[C@@H](C)C(N)=O)NC(=O)[C@H](Cc2csc4ccccc24)NC1=O)C(=O)N3 (relative stereo) [I-540, Ac-PL3-Asp-Npg-B5-Asp-3COOHF-Aib-Ala-Phe-Lys*3-PyrS2-OctG-BztA-GlnR*3-Ala-NH2] | 200 to 750
3 | CC(=O)N1CCC[C@]12CC=CCCCC1(CCCC=CCCCOC(=O)N3CC[C@@]4(C3)NC(=O)[C@H](CCCCNC(=O)CC[C@@H](C(=O)N[C@@H](C)C(N)=O)NC(=O)[C@H](Cc3csc5ccccc35)NC(=O)[C@H](Cc3cccs3)NC4=O)NC(=O)[C@H](Cc3ccccc3)NC(=O)[C@H](C)NC(=O)C(C)(C)NC(=O)[C@H](Cc3cccc(C(=O)O)c3)NC(=O)[C@H](CC(=O)O)NC1=O)NC(=O)[C@H](CC(C)(C)C)NC(=O)[C@H](CC(=O)O)NC2=O (relative stereo) [I-541, Ac-PL3-Asp-Npg-B5-Asp-3COOHF-Aib-Ala-Phe-Lys*3-PyrS2-2Thi-BztA-GlnR*3-Ala-NH2] | < 50
4 | CC(=O)N1CCC[C@]12CC=CCCCC1(CCCC=CCCCOC(=O)N3CC[C@@]4(C3)NC(=O)[C@H](CC(=O)NCCCC[C@@H](C(N)=O)NC(=O)[C@H](Cc3csc5ccccc35)NC(=O)[C@H](Cc3ccsc3)NC4=O)NC(=O)[C@H](Cc3ccccc3)NC(=O)[C@H](C)NC(=O)[C@H](C)NC(=O)[C@H](Cc3cccc(C(=O)O)c3)NC(=O)[C@H](CC(=O)O)NC1=O)NC(=O)[C@H](CC(C)(C)C)NC(=O)[C@H](CC(=O)O)NC2=O (single isomer, unassigned) [I-35, Ac-PL3-Asp-Npg-B5-Asp-3COOHF-Ala-Ala-Phe-AsnR*3-PyrS2-3Thi-BztA-Lys*3-NH2] | 750 to 1000
5 | CC(=O)N1CCC[C@]12CC=CCCCC1(CCCC=CCCCOC(=O)N3CC[C@@]4(C3)NC(=O)[C@H](CC(=O)NCCCC[C@@H](C(N)=O)NC(=O)[C@H](Cc3csc5ccccc35)NC(=O)[C@H](Cc3ccsc3)NC4=O)NC(=O)[C@H](Cc3ccccc3)NC(=O)[C@H](C)NC(=O)[C@H](C)NC(=O)[C@H](Cc3cccc(C(=O)O)c3)NC(=O)[C@H](CC(=O)O)NC1=O)NC(=O)[C@H](CC(C)(C)C)NC(=O)[C@H](CC(=O)O)NC2=O (single isomer, unassigned) [I-36, Ac-PL3-Asp-Npg-B5-Asp-3COOHF-Ala-Ala-Phe-AsnR*3-PyrS2-3Thi-BztA-Lys*3-NH2] | 200 to 750
6 | CC(=O)N1CCC[C@]12CC=CCCCC1(CCCC=CCCCOC(=O)N3CC[C@@]4(C3)NC(=O)[C@H](CCCCNC(=O)CC[C@@H](C(=O)N[C@@H](CC(C)C)C(N)=O)NC(=O)[C@H](Cc3csc5ccccc35)NC(=O)[C@H](Cc3ccccc3C(F)(F)F)NC4=O)NC(=O)[C@H](Cc3ccccc3)NC(=O)[C@H](C)NC(=O)[C@H](CC(C)(C)C)NC(=O)[C@H](Cc3cccc(C(=O)O)c3)NC(=O)[C@H](CC(=O)O)NC1=O)NC(=O)[C@H](CC(C)(C)C)NC(=O)[C@H](CC(=O)O)NC2=O (single isomer, unassigned) [I-109, Ac-PL3-Asp-Npg-B5-Asp-3COOHF-Npg-Ala-Phe-Lys*3-PyrS2-2F3MeF-BztA-GlnR*3-Leu-NH2] | 50 to 200
7 | CC(=O)N1CCC[C@]12CC=CCCCC1(CCCC=CCCCOC(=O)N3CC[C@@]4(C3)NC(=O)[C@H](CCCCNC(=O)CC[C@@H](C(=O)N[C@@H](C)C(N)=O)NC(=O)[C@H](Cc3csc5ccccc35)NC(=O)[C@H](Cc3ccccc3C(F)(F)F)NC4=O)NC(=O)[C@H](Cc3ccccc3)NC(=O)[C@H](C)NC(=O)[C@H](C)NC(=O)[C@H](CN(CC(=O)O)CC(F)(F)F)NC(=O)[C@H](CC(=O)O)NC1=O)NC(=O)[C@H](CC(C)(C)C)NC(=O)[C@H](CC(N)=O)NC2=O (single isomer, unassigned) [I-114, Ac-PL3-Asn-Npg-B5-Asp-TfeGA-Ala-Ala-Phe-Lys*3-PyrS2-2F3MeF-BztA-GlnR*3-Ala-NH2] | 50 to 200

The next lines start with the values.

Row | IC50 [nM] | SMILES
8 | > 1000 | CC(=O)N1CCC[C@]12CC=CCCCC1(CCCC=CCCCOC(=O)N3CC[C@@]4(C3)NC(=O)[C@H](CCCCNC(=O)CC[C@@H](C(=O)N[C@@H](C)C(N)=O)NC(=O)[C@H](Cc3csc5ccccc35)NC(=O)[C@H](Cc3ccsc3)NC4=O)NC(=O)[C@H](Cc3ccccc3)NC(=O)[C@H](C)NC(=O)C(C)(C)NC(=O)[C@H](CCC(=O)O)NC(=O)[C@H](CCC(=O)O)NC1=O)NC(=O)[C@H](CC(C)(C)C)NC(=O)[C@H](CCC(=O)O)NC2=O (relative stereo) [I-552, Ac-PL3-Glu-Npg-B5-Glu-Glu-Aib-Ala-Phe-Lys*3-PyrS2-3Thi-BztA-GlnR*3-Ala-NH2]
9 | < 50 | CC(=O)N1CCC[C@]12CC=CCCCC1(CCCC=CCCCOC(=O)N3CC[C@@]4(C3)NC(=O)[C@@H](CCCNC(=O)CC[C@@H](C(=O)N[C@@H](C)C(N)=O)NC(=O)[C@H](Cc3csc5ccccc35)NC(=O)[C@H](Cc3ccsc3)NC4=O)NC(=O)[C@H](Cc3ccccc3)NC(=O)[C@H](C)NC(=O)C(C)(C)NC(=O)[C@H](Cc3cccc(C(=O)O)c3)NC(=O)[C@H](CC(=O)O)NC1=O)NC(=O)[C@H](CC(C)(C)C)NC(=O)[C@H](CC(=O)O)NC2=O (relative stereo) [I-558, Ac-PL3-Asp-Npg-B5-Asp-3COOHF-Aib-Ala-Phe-dOrn*3-PyrS2-3Thi-BztA-GlnR*3-Ala-NH2]
10 | < 50 | CC(=O)N1CCC[C@]12CC=CCCCC1(CCCC=CCCCOC(=O)N3CC[C@@]4(C3)NC(=O)[C@@H](CCNC(=O)CC[C@@H](C(=O)N[C@@H](C)C(N)=O)NC(=O)[C@H](Cc3csc5ccccc35)NC(=O)[C@H](Cc3ccsc3)NC4=O)NC(=O)[C@H](Cc3ccccc3)NC(=O)[C@H](C)NC(=O)C(C)(C)NC(=O)[C@H](Cc3cccc(C(=O)O)c3)NC(=O)[C@H](CC(=O)O)NC1=O)NC(=O)[C@H](CC(C)(C)C)NC(=O)[C@H](CC(=O)O)NC2=O (relative stereo) [I-559, Ac-PL3-Asp-Npg-B5-Asp-3COOHF-Aib-Ala-Phe-dDab*3-PyrS2-3Thi-BztA-GlnR*3-Ala-NH2]
11 | < 50 | CC(=O)N1CCC[C@]12CC=CCCCC1(CCCC=CCCCOC(=O)N3CC[C@@]4(C3)NC(=O)[C@H](CCCN(C)C(=O)CCC[C@@H](C(=O)N[C@@H](C)C(N)=O)NC(=O)[C@H](Cc3csc5ccccc35)NC(=O)[C@H](Cc3ccsc3)NC4=O)NC(=O)[C@H](Cc3ccccc3)NC(=O)[C@H](C)NC(=O)C(C)(C)NC(=O)[C@H](Cc3cccc(C(=O)O)c3)NC(=O)[C@H](CC(=O)O)NC1=O)NC(=O)[C@H](CC(C)(C)C)NC(=O)[C@H](CC(=O)O)NC2=O (relative stereo) [I-561, Ac-PL3-Asp-Npg-B5-Asp-3COOHF-Aib-Ala-Phe-NMeOrn*3-PyrS2-3Thi-BztA-hGlnR*3-Ala-NH2]
12 | > 1000 | CC(=O)N1CCC[C@]12CC=CCCCC1(CCCC=CCCCOC(=O)N3CC[C@@]4(C3)NC(=O)[C@H](CCCCNC(=O)CC[C@@H](C(=O)N[C@@H](C)C(N)=O)NC(=O)[C@H](Cc3csc5ccccc35)NC(=O)[C@H](Cc3ccsc3)NC4=O)NC(=O)[C@H]([C@@H](C)c3c(C)cccc3C)NC(=O)[C@H](C)NC(=O)C(C)(C)NC(=O)[C@H](Cc3cccc(C(=O)O)c3)NC(=O)[C@H](CC(=O)O)NC1=O)NC(=O)[C@H](CC(C)(C)C)NC(=O)[C@H](CC(=O)O)NC2=O (relative stereo) [I-604, Ac-PL3-Asp-Npg-B5-Asp-3COOHF-Aib-Ala-SbMeXylA-Lys*3-PyrS2-3Thi-BztA-GlnR*3-Ala-NH2]
13 | > 1000 | CC(=O)N1CCC[C@]12CC=CCCCC1(CCCC=CCCCOC(=O)N3CC[C@@]4(C3)NC(=O)[C@H](CCCCNC(=O)CC[C@@H](C(=O)N[C@@H](C)C(N)=O)NC(=O)[C@H](Cc3csc5ccccc35)NC(=O)[C@H](Cc3ccsc3)NC4=O)NC(=O)[C@@H]([C@@H](C)c3c(C)cccc3C)NC(=O)[C@H](C)NC(=O)C(C)(C)NC(=O)[C@H](Cc3cccc(C(=O)O)c3)NC(=O)[C@H](CC(=O)O)NC1=O)NC(=O)[C@H](CC(C)(C)C)NC(=O)[C@H](CC(=O)O)NC2=O (relative stereo) [I-605, Ac-PL3-Asp-Npg-B5-Asp-3COOHF-Aib-Ala-SbMeXylDA-Lys*3-PyrS2-3Thi-BztA-GlnR*3-Ala-NH2]
14 | > 1000 | CC(=O)N1CCC[C@]12CC=CCCCC1(CCCC=CCCCOC(=O)N3CC[C@@]4(C3)NC(=O)[C@H](CCCCNC(=O)CC[C@@H](C(=O)N[C@@H](CCCCN=[N+]=[N-])C(N)=O)NC(=O)[C@H](Cc3csc5ccccc35)NC(=O)[C@H](Cc3ccsc3)NC4=O)NC(=O)[C@H](Cc3ccccc3)NC(=O)[C@H](C)NC(=O)C(C)(C)NC(=O)[C@H](Cc3cccc(C(=O)O)c3)NC(=O)[C@H](CCC(=O)O)NC1=O)NC(=O)[C@H](CC(C)(C)C)NC(=O)[C@H](CCC(=O)O)NC2=O (relative stereo) [I-606, Ac-PL3-Glu-Npg-B5-Glu-3COOHF-Aib-Ala-Phe-Lys*3-PyrS2-3Thi-BztA-GlnR*3-AzLys-NH2]
15 | < 50 | CC(=O)N1CCC[C@]12CC=CCCCC1(CCCC=CCCCOC(=O)N3CC[C@@]4(C3)NC(=O)[C@H](CCCCNC(=O)CC[C@@H](C(=O)N[C@@H](CCCCN=[N+]=[N-])C(N)=O)NC(=O)[C@H](Cc3csc5ccccc35)NC(=O)[C@H](Cc3ccsc3)NC4=O)NC(=O)[C@H](Cc3ccccc3)NC(=O)[C@H](C)NC(=O)C(C)(C)NC(=O)[C@H](Cc3cccc(C(=O)O)c3)NC(=O)[C@H](CC(=O)O)NC1=O)NC(=O)[C@H](CC(C)(C)C)NC(=O)[C@H](CC(=O)O)NC2=O (relative stereo) [I-607, Ac-PL3-Asp-Npg-B5-Asp-3COOHF-Aib-Ala-Phe-Lys*3-PyrS2-3Thi-BztA-GlnR*3-AzLys-NH2]

Reference: US20240360179A1, “STAPLED PEPTIDES AND METHODS THEREOF” (FOG PHARMACEUTICALS, INC., priority 2021, published 2024)
